Test results taken from publication PMC2729490 (Biochemistry, 2009).

Columns and labels:
[1] = molecular target: T1, calmodulin (CaM), Ca^2+ loaded (Homo sapiens, UniProt P0DP23); test: 1H-15N HSQC NMR titration of 15N CaM; type: binding; conditions: 25 °C, pH 6.5, 10 mM CaCl2, 136-150 μM 15N CaM
[2] = molecular target: T1, calmodulin (CaM), Ca^2+ loaded; test: Isothermal titration calorimetry with CaM; type: binding; conditions: ITC, 25°C, pH 6.5, 10 mM CaCl2

Compound: CC[C@H](C)[C@H](NC(=O)[C@@H](NC(=O)[C@H](CS)NC(=O)[C@H](CCCCN)NC(=O)[C@@H](NC(=O)[C@H](CCCCN)NC(=O)[C@H](CO)NC(=O)[C@H](CCCCN)NC(=O)[C@H](CCCCN)NC(=O)[C@H](CCCCN)NC(=O)[C@H](CCCCN)NC(=O)[C@H](CCCCN)NC(=O)[C@H](CCCCN)NC(=O)CNC(=O)[C@H](CC(=O)O)NC(=O)[C@H](CCCCN)NC(=O)[C@H](CO)NC(=O)[C@H](CCSC)NC(=O)[C@H](CCCCN)NC(=O)[C@H](CCC(=O)O)NC(=O)[C@@H](N)CCCCN)[C@@H](C)O)C(C)C)C(=O)N[C@@H](CCSC)C(=O)O [HVR peptide]
- saturation of CaM, molar equivalents [1]: 2.1 molar equivalents
- heat of binding (sign) [2]: Endothermic binding
- stoichiometry of CaM binding / number of binding sites ([2]; one set of sites model): one binding site
- ΔH ([2]; one set of sites model): 0.65 ± 0.1 kcal/mol
- ΔS ([2]; one set of sites model): 25.1 cal/deg/mol
